Measurements published in US20110269793A1, “METHOD FOR PREVENTING TAU PROTEIN AGGREGATION AND TREATING ALZHEIMER'S DISEASE WITH A QUINOLINE DERIVATIVE COMPOUND” (priority 2010, published 2011).

Test: Octanol/water partition coefficient (Log P)
Format: physicochemical
Conditions: partition coefficient octanol/PBS buffer 0.1× pH 7.4, triplicate
Method: Pharm. Hung. 62 (1-2): 55-64, wherein 2 phases are used, an aqueous phase comprising a buffer solution PBS 0.1× pH 7.4 that is saturated with an n-octanol solution that comprises the organic phase.
Stock solutions at 1.0 mg/mL of each quinoline being studied were prepared in PBS buffer 0.1× pH 7.4 saturated in octanol. […] Starting from these solutions, dilutions were made for a range concentration of between 1.0 mg/mL and 100 μg/mL to establish their maximum absorbance in the UV-visible region.
Then the tested quinolines were dissolved in PBS 0.1× pH 7.4 saturated in n-octanol and agitated for 30 min. at room temperature. Subsequently, this emulsion was left to settle for 48 h and a centrifugation at 3,000 rpm for 10 minutes was carried out to separate the phases. Both the octanol/water partition coefficient and Log P were established using the difference in the absorbance in the UV-visible region for each compound using equation 1:
[THQ in octanol]=[THQ start]−[THQ buffer] Éq. 1:
The concentrations for THQ start are established using equation 2: […]
Subsequently, the P quotient in established between both phases as described by equation 3: […]
Finally the partition coefficient is established by Log P.
For this test 2 controls were used: clidinium bromide that is a quaternary amine that is not liposoluble, and sodium thiopental, which is a very liposoluble barbituric anaesthetic. […]

## 2-(9-aminophenyl)quinoline [THQ 56]
  Log P (experimental): 0.293 + 0.002
